{"source": "paper PMC11002996", "about": "(Journal of medicinal chemistry, 2023)", "system": "priming by LPS (TNF-α)", "assay": "LPS priming step, TNF-α in J774A.1 culture media by ELISA", "format": "cell-based, mouse", "settings": "various concentrations"}
{"smiles": "COC(=O)c1ccc(-c2cn(Cc3cc(Cl)ccc3OC)nn2)cc1", "note": "[Compound 8, Methyl 4-(1-(5-chloro-2-methoxybenzyl)-1H-1,2,3-triazol-4-yl)benzoate]", "values": [{"measurement": "inhibitory effect on the LPS priming step", "value": "no inhibitory effect"}]}
